One data set addresses TRPM8 (Rattus norvegicus, UniProt Q8R455). In words: Ca2+ microfluorography (Fluo-4 NW), menthol-induced Ca2+ signal in HEK-CR1-TRPM8 cells. In kind it is cell-based. The conditions noted are these: for % Block TRPM8 50 µM: 50 µM compound; for % Block TRPM8 50 µM / pIC50: agonist 100 µM menthol, HEK-CR1-TRPM8 cells; for pIC50: read-out: IC50 TRPM8.
The target in a further data set is TRPV1 (Rattus norvegicus, UniProt O35433). Briefly: Ca2+ microfluorography (Fluo-4 NW), capsaicin-induced Ca2+ signal in SH-SY5Y-TRPV1 cells. In kind it is cell-based. The conditions noted are these: 50 µM compound, agonist 10 µM capsaicin.
A short description of a further data set: Kinetic solubility. The class given is physicochemical.

Sequences of proteins named here, by UniProt entry; tags and fusion partners are left off.
UniProt Q8R455, whole entry: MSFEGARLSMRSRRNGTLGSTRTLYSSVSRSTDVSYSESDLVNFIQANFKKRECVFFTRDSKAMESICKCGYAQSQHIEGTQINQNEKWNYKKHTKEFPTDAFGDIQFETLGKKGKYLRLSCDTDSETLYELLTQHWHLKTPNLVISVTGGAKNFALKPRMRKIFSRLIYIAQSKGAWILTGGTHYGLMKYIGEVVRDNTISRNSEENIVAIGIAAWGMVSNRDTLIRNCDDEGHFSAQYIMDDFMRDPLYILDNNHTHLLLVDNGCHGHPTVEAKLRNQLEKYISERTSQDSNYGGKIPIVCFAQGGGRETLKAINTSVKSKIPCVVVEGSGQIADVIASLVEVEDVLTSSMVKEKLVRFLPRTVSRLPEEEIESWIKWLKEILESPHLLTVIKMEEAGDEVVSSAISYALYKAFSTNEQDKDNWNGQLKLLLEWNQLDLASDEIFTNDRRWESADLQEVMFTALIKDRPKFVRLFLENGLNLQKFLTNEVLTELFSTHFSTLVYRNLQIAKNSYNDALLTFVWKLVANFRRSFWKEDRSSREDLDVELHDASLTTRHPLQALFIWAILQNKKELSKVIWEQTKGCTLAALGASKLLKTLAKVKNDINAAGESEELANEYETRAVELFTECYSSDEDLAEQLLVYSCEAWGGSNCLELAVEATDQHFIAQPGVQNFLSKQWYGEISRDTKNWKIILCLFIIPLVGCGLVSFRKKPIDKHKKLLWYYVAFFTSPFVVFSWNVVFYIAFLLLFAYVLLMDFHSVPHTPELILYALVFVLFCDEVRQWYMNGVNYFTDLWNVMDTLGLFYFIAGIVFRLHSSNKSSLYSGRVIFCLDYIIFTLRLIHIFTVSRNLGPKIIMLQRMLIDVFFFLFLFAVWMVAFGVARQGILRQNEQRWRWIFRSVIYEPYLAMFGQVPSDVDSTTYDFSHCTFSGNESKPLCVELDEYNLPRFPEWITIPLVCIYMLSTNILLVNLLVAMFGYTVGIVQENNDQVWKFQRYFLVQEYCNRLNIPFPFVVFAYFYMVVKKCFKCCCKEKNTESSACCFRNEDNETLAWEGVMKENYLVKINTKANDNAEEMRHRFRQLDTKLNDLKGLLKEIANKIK
UniProt O35433, whole entry: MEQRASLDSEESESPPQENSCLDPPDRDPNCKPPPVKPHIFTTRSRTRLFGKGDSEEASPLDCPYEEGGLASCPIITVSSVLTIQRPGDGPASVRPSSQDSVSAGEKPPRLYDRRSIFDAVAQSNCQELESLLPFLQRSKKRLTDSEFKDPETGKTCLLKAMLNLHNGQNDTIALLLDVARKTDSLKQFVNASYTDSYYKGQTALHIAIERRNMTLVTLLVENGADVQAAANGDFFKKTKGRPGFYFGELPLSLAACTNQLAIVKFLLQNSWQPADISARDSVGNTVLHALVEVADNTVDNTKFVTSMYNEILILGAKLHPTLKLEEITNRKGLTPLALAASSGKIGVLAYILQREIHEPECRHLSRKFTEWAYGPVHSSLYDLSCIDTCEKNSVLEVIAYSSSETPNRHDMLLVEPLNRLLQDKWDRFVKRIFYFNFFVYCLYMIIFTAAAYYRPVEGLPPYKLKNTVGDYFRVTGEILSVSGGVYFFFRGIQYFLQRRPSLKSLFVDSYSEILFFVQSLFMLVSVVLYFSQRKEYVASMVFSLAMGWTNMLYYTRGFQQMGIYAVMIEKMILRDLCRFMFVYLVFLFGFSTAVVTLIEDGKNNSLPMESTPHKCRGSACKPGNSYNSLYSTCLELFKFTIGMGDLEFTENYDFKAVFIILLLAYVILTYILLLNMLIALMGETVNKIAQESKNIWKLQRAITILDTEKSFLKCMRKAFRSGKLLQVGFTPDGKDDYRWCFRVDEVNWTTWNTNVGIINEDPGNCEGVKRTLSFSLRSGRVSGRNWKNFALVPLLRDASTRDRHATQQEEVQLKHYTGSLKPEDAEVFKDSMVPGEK

pIC50: −log10 of the molar value. Values joined by “and” are separate entries in the source; they are usually repeats but may differ in a detail not shown here. Identical values can stand only once.

By pIC50 is commonly meant the IC50 on a negative log10 scale, so that one unit is a factor of ten. `C[C@@H]1C(=O)N(CC[C@H](NC(=O)OC(C)(C)C)C(=O)NCc2ccccc2)[C@]1(Cc1ccccc1)C(=O)NCc1ccccc1`: on TRPM8, the “% Block TRPM8 50 µM” value came to 100% and the pIC50 was 5.08. Besides, the “% Block TRPV1 50 µM” value on TRPV1 turned out to be 13.0 ± −9.0%.
As for `COC(=O)[C@H](Cc1ccccc1)NC(=O)[C@H](CCN1C(=O)C[C@]1(Cc1ccccc1)C(=O)N[C@@H](Cc1ccccc1)C(=O)OC)NC(=O)OC(C)(C)C`, at TRPM8, the “% Block TRPM8 50 µM” value is given as 99.3 ± 3.4% and the pIC50 is 5.03. Further, the “% Block TRPV1 50 µM” value at TRPV1 was determined as 16.8 ± 10.4%.
In the case of `COC(=O)[C@H](C)NC(=O)[C@H](CCN1C(=O)C[C@]1(Cc1ccccc1)C(=O)N[C@@H](C)C(=O)OC)NC(=O)OC(C)(C)C`, on TRPM8, the “% Block TRPM8 50 µM” value came out at 33.7 ± 11.7% and the negative logarithm of the IC50 (pIC50) is 4.12. Also, on TRPV1, the “% Block TRPV1 50 µM” value worked out at 10.3 ± 11.9%.
As to `COC(=O)[C@H](Cc1ccccc1)NC(=O)[C@H](CCN1C(=O)C[C@@]1(Cc1ccccc1)C(=O)N[C@@H](Cc1ccccc1)C(=O)OC)NC(=O)OC(C)(C)C`, at TRPM8, the “% Block TRPM8 50 µM” value stood at 99.3 ± 7.7% and the pIC50 is 5.08. Also, the “% Block TRPV1 50 µM” value at TRPV1 is reported as 12.4 ± 10.8%.
The like results for `COC(=O)[C@H](CCCN1C(=O)CC1(Cc1ccccc1)C(=O)OC(C)(C)C)N(C)C(=O)OCc1ccccc1` (stereo partly shown) were, in that order, 88.9 ± 13.1%, 5.10 and 30.2 ± 8.9%.
Take `CC(C)(C)OC(=O)N[C@@H](CCN1C(=O)CC1(Cc1ccccc1)C(=O)NCc1ccncc1)C(=O)NCc1ccncc1` (stereo partly shown): on TRPM8, the “% Block TRPM8 50 µM” value is given as 39.3 ± 14.7% and the pIC50 was 4.26. At TRPV1, the “% Block TRPV1 50 µM” value is recorded as 7.4 ± 9.5%. Also, the Kinetic solubility in “Kinetic solubility” (1% DMSO) was 86 M and 56 mg/L. Besides, the Kinetic solubility in the data set “Kinetic solubility” (5% DMSO) is 441 M and 291 mg/L.
Consider `CN[C@@H](CCCN1C(=O)CC1(Cc1ccccc1)C(=O)OC(C)(C)C)C(=O)OC` (stereo partly shown), for which, at TRPM8, the “TRPM8 blocking activity (in words)” value is “almost inexistent”, the “% Block TRPM8 50 µM” value came to 21.5 ± 20.5% and the negative logarithm of the IC50 (pIC50) is 3.12. Further, on TRPV1, the “% Block TRPV1 50 µM” value was found to be 22.2 ± 12.7%.
On to `C[C@H]1C(=O)N(CC[C@H](NC(=O)OC(C)(C)C)C(=O)NCc2ccccc2)[C@@]1(Cc1ccccc1)C(=O)NCc1ccccc1`, for which, on TRPM8, the “% Block TRPM8 50 µM” value is 100% and the pIC50 is 5.24. Besides, the “% Block TRPV1 50 µM” value at TRPV1 is reported as 15.2 ± 11.8%.
With `COC(=O)[C@H](CCCN1C(=O)CC1(C)C(=O)OC(C)(C)C)NC(=O)OCc1ccccc1` (stereo partly shown), at TRPM8, the “TRPM8 blocking activity (in words)” value is “no activity”, the “% Block TRPM8 50 µM” value is 4.1 ± 16.9% and the negative-log IC50 (pIC50) was 2.74. Also, on TRPV1, the “% Block TRPV1 50 µM” value is 27.2 + 32.7%.

For the origin of these results see PMC5589751, “Synthesis, high-throughput screening and pharmacological characterization of β–lactam derivatives as TRPM8 antagonists” (Scientific Reports, 2017).
